Results on 1 compound are retold here after ChEMBL document CHEMBL1139476, “Radioiodinated flavones for in vivo imaging of beta-amyloid plaques in the brain” (J Med Chem, 2005).

By UniProt entry, the sequences of proteins in these tests, tags left out.
UniProt P05067, whole entry: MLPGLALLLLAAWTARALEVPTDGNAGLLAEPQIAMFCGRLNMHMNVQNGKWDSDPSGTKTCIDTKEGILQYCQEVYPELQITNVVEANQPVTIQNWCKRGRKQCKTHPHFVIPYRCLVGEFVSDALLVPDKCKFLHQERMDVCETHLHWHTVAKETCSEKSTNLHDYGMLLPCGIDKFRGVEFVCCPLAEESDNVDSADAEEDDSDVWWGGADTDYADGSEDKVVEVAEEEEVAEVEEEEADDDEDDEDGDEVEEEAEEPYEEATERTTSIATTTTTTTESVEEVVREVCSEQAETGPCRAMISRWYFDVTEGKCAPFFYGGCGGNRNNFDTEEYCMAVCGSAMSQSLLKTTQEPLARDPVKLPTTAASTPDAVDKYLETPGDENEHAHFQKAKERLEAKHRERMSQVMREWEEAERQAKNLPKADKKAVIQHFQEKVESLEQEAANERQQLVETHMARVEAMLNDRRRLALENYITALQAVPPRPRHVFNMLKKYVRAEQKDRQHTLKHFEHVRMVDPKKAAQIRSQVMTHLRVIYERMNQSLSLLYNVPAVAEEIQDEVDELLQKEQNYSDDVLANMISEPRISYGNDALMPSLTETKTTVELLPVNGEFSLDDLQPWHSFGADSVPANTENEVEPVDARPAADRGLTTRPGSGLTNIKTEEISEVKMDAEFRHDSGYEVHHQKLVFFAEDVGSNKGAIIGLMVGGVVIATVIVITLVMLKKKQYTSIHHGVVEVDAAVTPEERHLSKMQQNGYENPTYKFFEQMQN

Experiment [1] deals with T1, Amyloid-beta precursor protein (Homo sapiens, UniProt P05067). Description: Displacement of [125I]6-iodo-4'-dimethyaminofl avone from beta amyloid (1-42) protein aggregates. In outline:
(§1)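 Aβ peptide (0.5 mg/mL) aggregated 36-42 h at 37 °C with shaking in pH 7.4 buffer of 10 mM sodium phosphate, 1 mM EDTA. Aggregates incubated 3 h at room temperature in 10% ethanol with test compound (8 pM to 12.5 μM) and [125I]11 (50 μL of 0.02 nM); filtered on GF/B, γ counted. IC50 from three independent experiments; Ki by Cheng-Prusoff using Kd from Scatchard saturation.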
(In general: Displacement assays read how much labelled ligand stays bound in the presence of the test substance.)

Experiment [2] has as its target T1, Amyloid-beta precursor protein. Nature of the experiment: Displacement of [125I]6-iodo-4'-dimethyaminofl avone from beta amyloid (1-40) protein aggregates. In a few lines: as §1

The term Ki denotes a measure of affinity in units of concentration, obtained from inhibition or displacement.

Turning to `Cc1ccc2c(c1)sc(-c1ccc(N(C)C)cc1)[n+]2C` [THIOFLAVIN T], the Ki in experiment [1] and in experiment [2] was more than 1000 nM throughout.
